{
  "sequences": {"note": "Sequences of proteins named here, by UniProt entry; tags and fusion partners are left off.", "UniProt P05177, whole entry": "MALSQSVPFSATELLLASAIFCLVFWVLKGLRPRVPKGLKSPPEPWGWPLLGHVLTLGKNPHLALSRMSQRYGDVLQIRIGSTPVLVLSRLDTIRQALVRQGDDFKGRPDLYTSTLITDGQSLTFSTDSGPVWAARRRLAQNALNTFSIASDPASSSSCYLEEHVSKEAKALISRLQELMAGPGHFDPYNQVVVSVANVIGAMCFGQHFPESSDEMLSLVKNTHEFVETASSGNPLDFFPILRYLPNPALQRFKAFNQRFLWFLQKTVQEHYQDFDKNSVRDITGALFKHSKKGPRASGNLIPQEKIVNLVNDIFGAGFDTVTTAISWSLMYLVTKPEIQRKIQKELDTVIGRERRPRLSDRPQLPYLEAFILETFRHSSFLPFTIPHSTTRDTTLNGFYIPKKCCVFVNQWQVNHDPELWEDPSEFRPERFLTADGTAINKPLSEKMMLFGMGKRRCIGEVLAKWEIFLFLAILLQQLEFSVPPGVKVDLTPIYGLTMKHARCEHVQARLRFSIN"},
  "source": "patent US20240217973A1",
  "about": "“IMIDAZOPYRIDINE COMPOUNDS AND USE THEREOF” (MEDSHINE DISCOVERY INC., priority 2021, published 2024)",
  "key": {"[1]": {"experiment": "Hepatocyte metabolic stability experiment (HMS), M", "conditions": "M hepatocytes, 1 μM", "procedure": "(§1) Experimental operations: 198 μL of hepatocyte suspension (0.51×10^6 cells/mL) was added to the preheated incubation plate, and 198 μL of culture medium without hepatocytes was added to T0-MC and T120-MC incubation plates for the culture medium control group, and all incubation plates were pre-incubated for 10 minutes in a 37° C. incubator. Then 2 μL of the working solution of the test and control compounds were added and mixed well, and the incubation plate was immediately put into the plate shaker in the incubator, the rotation speed was adjusted to about 650 rpm, and the timer and the reaction were started. 2 duplicate samples for each compound were prepared at each time point. Incubation conditions: 37° C., saturated humidity, and containing 5% CO2. In the test system, the final concentration of the test compound was 1 μM, the final concentration of the control compound was 3 μM, the final concentration of hepatocytes was 0.5×10^6 cells/mL, and the final concentration of the total organic solvent was 0.96%, of which the final concentration of DMSO was 0.1%. […] All samples were mixed and analyzed by LC-MS/MS method. […]"}, "[2]": {"experiment": "Hepatocyte metabolic stability experiment (HMS), C", "conditions": "C hepatocytes, 1 μM", "procedure": "as §1"}, "CYP1A2": {"molecular_target": "CYP1A2 (Homo sapiens (Human), UniProt P05177)"}, "plasma proteins [3]": {"tested_on": "plasma proteins", "experiment": "Plasma protein binding experiment (PPB), C", "conditions": "2 μM, 4 hours dialysis", "procedure": "(§2) Experimental operation: 995 μL of blank plasma of each genus was taken, 5 μL of working solution of test compound (400 μM) or working solution of warfarin (400 μM) was added, so that the final concentrations of the test compound and warfarin in the plasma sample was 2 μM. The sample was mixed thoroughly. The final concentration of the organic phase DMSO was 0.5%; 50 μL of plasma samples of the test compound and warfarin were pipetted into the sample receiving plate (three parallels), and the corresponding volume of the corresponding blank plasma or buffer was immediately added so that the final volume of each sample well was 100 μL, with a volume ratio of 1:1 for plasma: dialysis buffer, and then 500 μL of stop solution was added to these samples, and these samples would be used as a T0 sample for the recovery and stability determination. […] All samples were analyzed by LC/MS/MS after protein precipitation, and the protein binding rate and recovery rate were calculated by the formula: % Unbound=100*F/T, % Bound=100−% Unbound, % Recovery 100*(F+T) T0 (where F was the peak area ratio of the compound in the dialysate after 4 hours of dialysis; T was the peak area ratio of the compound in the plasma after 4 hours of dialysis, and T0 was the peak area ratio of the compound in the plasma sample at zero time)."}, "[4]": {"experiment": "Hepatocyte metabolic stability experiment (HMS), D", "conditions": "D hepatocytes, 1 μM", "procedure": "as §1"}, "[5]": {"experiment": "Pharmacokinetic evaluation of compounds in dogs", "conditions": "beagle dogs", "procedure": "Experimental purpose: To test the in vivo pharmacokinetic data of compounds in beagle dogs.\n(§3) The compound was mixed with the solvent 5% DMSO/5% Solutol/90% H2O, vortexed and sonicated to prepare a 0.5 mg/mL clear solution. The beagle dogs were administered the candidate compound solution intravenously. Whole blood was collected for a certain period of time, and plasma was prepared. The drug concentration was analyzed by LC-MS/MS method, and pharmacokinetic parameters were calculated.\nas §3, with “administered” for “administered the”, “solutions orally.” for “solution intravenously.”, “LC- MS/MS” for “LC-MS/MS”"}, "plasma proteins [6]": {"tested_on": "plasma proteins", "experiment": "Plasma protein binding experiment (PPB), R", "conditions": "2 μM, 4 hours dialysis", "procedure": "as §2"}, "plasma proteins [7]": {"tested_on": "plasma proteins", "experiment": "Plasma protein binding experiment (PPB), H", "conditions": "2 μM, 4 hours dialysis", "procedure": "as §2"}, "plasma proteins [8]": {"tested_on": "plasma proteins", "experiment": "Plasma protein binding experiment (PPB), M", "conditions": "2 μM, 4 hours dialysis", "procedure": "as §2"}, "[9]": {"conditions": "IV, 0.49 mg/kg (002), 0.5 mg/kg (003B)"}},
  "data": [
    {"smiles": "Nc1nccc2c1n(-c1ccc(Oc3ccccc3)cc1)c(=O)n2C1CCN(C(=O)/C=C/CF)C1", "note": "(single isomer, unassigned) [Compound 003B]", "values": [
      {"measurement": "HMS CLint(liver)", "setting": "[1]", "value": 2766, "unit": "mL/min/kg"},
      {"measurement": "HMS CLint(liver)", "setting": "[2]", "value": 73, "unit": "mL/min/kg"},
      {"measurement": "IC50", "setting": "CYP1A2", "value": "> 50", "unit": "µM"},
      {"measurement": "Unbound PPB", "setting": "plasma proteins [3]", "value": 9.5, "unit": "%"},
      {"measurement": "HMS CLint(liver)", "setting": "[4]", "value": "< 44", "unit": "mL/min/kg"},
      {"measurement": "AUC0-inf", "setting": "[5]; [9]", "value": 0.557, "unit": "µM·h"},
      {"measurement": "C0", "setting": "[5]; [9]", "value": 451, "unit": "nM"},
      {"measurement": "Cl", "setting": "[5]; [9]", "value": 31.9, "unit": "mL/min/kg"},
      {"measurement": "T1/2", "setting": "[5]; [9]", "value": 1.14, "unit": "h"},
      {"measurement": "Vd", "setting": "[5]; [9]", "value": 2.49, "unit": "L/kg"},
      {"measurement": "AUC0-inf", "setting": "[5]; PO, 2.0 mg/kg", "value": 2.247, "unit": "µM·h"},
      {"measurement": "Cmax", "setting": "[5]; PO, 2.0 mg/kg", "value": 724, "unit": "nM"},
      {"measurement": "F %", "setting": "[5]; PO, 2.0 mg/kg", "value": 101, "unit": "%"},
      {"measurement": "T1/2", "setting": "[5]; PO, 2.0 mg/kg", "value": 1.0, "unit": "h"},
      {"measurement": "Tmax", "setting": "[5]; PO, 2.0 mg/kg", "value": 0.63, "unit": "h"},
      {"measurement": "Unbound PPB", "setting": "plasma proteins [6]", "value": 5.7, "unit": "%"},
      {"measurement": "Unbound PPB", "setting": "plasma proteins [7]", "value": 10.7, "unit": "%"},
      {"measurement": "Unbound PPB", "setting": "plasma proteins [8]", "value": 1.8, "unit": "%"}
    ]}
  ]
}
